{"source": "patent US4764515A", "about": "“Antitussive and central sedative composition of d-isomer of 3-(4-phenyl-1-piperazinyl)-1,2-propanediol” (priority 1983, dated 1988)", "system": "Central Nervous System", "assay": "Activity on the Central Nervous System (overall statement)", "assay_type": "in vivo", "conditions": "in words; versus racemic mixture", "excerpt": "Tests have been carried out to determine the CNS activity, by evaluating the influence on the sleeping time induced by barbiturates in the mouse, according to the method of F. M. Berger \"Methods in Drug Evaluation\" Proc. Int. Symp. Milan, September 1965, North Holland Pubbl. Co., and by recording the electroencephalographic and electromiographic curves in the rat with chronically implanted electrodes, calculating the time (in seconds) in the awakening and sleeping condition (including synchronized and unsynchronized sleep).\nThe compounds under exam have been administered orally, in the sleeping time test 30 minutes before the i.p. injection of 35 mg/kg of secobarbital, while in the electroencephalographic test at the beginning of recording."}
{"compound": "OC[C@@H](O)CN1CCN(c2ccccc2)CC1", "note": "[(-), (-)-dropropizine]", "values": [{"measurement": "selectivity of the activity / undesired side-effects", "value": "much more selective, with lower undesired side-effects"}]}
